Assay results as given in patent US7989466B2, “Methods to inhibit or augment an inflammatory response” (Cambridge Enterprise Limited, priority 1999, dated 2011).

Columns and labels:
[1] = tested on: SDF-1α induced THP-1 migration; experiment: THP-1 trans-well migration assay, SDF-1α as chemoattractant; format: cell-based, human; conditions: n.s. = no statistically significant inhibition (p > 0.05); read-out: ED50 versus SDF-1α, inhibition of THP-1 migration
Procedure: (§1) To determine whether an agent inhibits a chemokine-induced activity, such as macrophage recruitment, varying amounts of the agent are mixed with cells in the presence of a known chemoattractant. For example, a range of known concentrations of an agent, e.g., a chemokine peptide, is incubated with a defined number (e.g., 10^4-10^6) of human THP-1 monocyte cells in individual wells of the top compartment of a trans-well plate. Chemokine (such as MCP-1, MIP1α, IL8 or SDF-1α), at a concentration known to cause significant migration of THP-1 cells in the trans-well migration assay, is placed in the lower compartment (FIG. 1). […] A standard curve consisting of a two-fold dilution series of THP-1 cells (in 29 μl) is prepared to accurately quantify the number of cells that have migrated. […] Absorbance of converted dye is measured at a wavelength of 595 nm using an ELISA plate reader. The number of migrated cells in each well is then determined by interpolation of the standard curve (see also Imai et al., J. Biol. Chem., 272, 15036 (1997)). […]
(§2) After incubation, the cells were gently removed from the top of the filter with a pipette, 20 μl of 20 mM EDTA in PBS was added into each top well, and the mixture was incubated for 20 minutes at 4° C. […] A standard curve was prepared to accurately quantify the number of THP-1 cells that had migrated. […]

[2] = tested on: MCP-1 induced THP-1 migration; experiment: THP-1 trans-well migration assay, MCP-1 as chemoattractant; format: cell-based, human; conditions: agent with the cells in the upper compartment; n.s. = no statistically significant inhibition (p > 0.05); read-out: ED50 versus MCP-1, inhibition of THP-1 migration
Procedure: as §1, §2

[3] = tested on: IL8 induced THP-1 migration; experiment: THP-1 trans-well migration assay, IL-8 as chemoattractant; format: cell-based, human; conditions: n.s. = no statistically significant inhibition (p > 0.05); read-out: ED50 versus IL8, inhibition of THP-1 migration
Procedure: as §1, §2

[4] = target: T1, Duffy Antigen Receptor for Chemokines (DARC) (Homo sapiens, UniProt Q16570); experiment: DARC binding: competition with 125I-MCP-1 on red blood cells; conditions: for DUFFY SELECTIVITY (DARC specificity ratio): estimated ka for binding to red blood cells divided by average inhibitory ED50 versus each of the chemokines
T1 sequence (Q16570 1-336): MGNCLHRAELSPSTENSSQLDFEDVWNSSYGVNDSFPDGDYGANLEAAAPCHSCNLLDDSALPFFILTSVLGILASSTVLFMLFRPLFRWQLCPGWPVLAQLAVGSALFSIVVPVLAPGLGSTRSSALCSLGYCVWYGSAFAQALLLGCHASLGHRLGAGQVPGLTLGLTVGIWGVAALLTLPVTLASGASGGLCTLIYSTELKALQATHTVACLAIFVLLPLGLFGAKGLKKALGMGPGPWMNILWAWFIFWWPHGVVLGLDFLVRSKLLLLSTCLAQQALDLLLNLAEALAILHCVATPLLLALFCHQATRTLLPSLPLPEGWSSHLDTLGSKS

[5] = tested on: chemokine-induced THP-1 migration; experiment: THP-1 trans-well migration assay, panel of chemokines (MCP-1, MIP1α, IL-8, SDF1α); format: cell-based, human; conditions: average inhibitory ED50 versus SDF1 and IL8 divided by average inhibitory ED50 versus MCP-1 and MIP1α
[6] = tested on: TGFβ1 induced THP-1 migration; experiment: THP-1 trans-well migration assay, TGFβ1 as non-chemokine control; format: cell-based, human; conditions: n.s. = no statistically significant inhibition (p > 0.05)
Procedure: Any method suitable for counting cells can be used, for example, counting with a hemocytometer, incubation of the cells with MTT (see above), or FACS analysis. A negative control assay is also performed, using TGF-β or another non-chemokine chemoattractant (e.g., IL1β or TNFα). To assess whether the agent is cytotoxic, the same concentrations of agent are incubated with THP-1 cells. Agents which 1) are not cytotoxic at levels which inhibit migration, 2) are ineffective at inhibiting the negative control-induced migration, and 3) reduce or inhibit chemokine-induced THP-1 migration, are agents which fall within the scope of the invention.
Chemotaxis was induced in a 96-well disposable chemotaxis chamber fitted with a […] polycarbonate filter (PVP free, ChemoTX, Neuroprobe Inc., Cabin John). […] The framed filter was aligned with the holes in the corner of the filter frame and placed over the wells. […] Peptides were dissolved in Milli Q water and then serially diluted in culture medium. In most cases, the serially diluted peptides were added to the upper compartment of the chemotaxis chamber. The chamber was incubated at 37° C. in a humidified atmosphere of 5% CO2 for 4 hours.
After incubation, the cells were gently removed from the top of the filter with a pipette, 20 μl of 20 mM EDTA in PBS was added into each top well, and the mixture was incubated for 20 minutes at 4° C. […]

[7] = tested on: RANTES induced THP-1 migration; experiment: THP-1 trans-well migration assay, RANTES as chemoattractant; format: cell-based, human; conditions: mean of at least two determinations; read-out: ED50 versus RANTES, inhibition of THP-1 migration
Procedure: as §1, §2

Structure (SMILES): CC(C)[C@H](NC(=O)[C@@H](N)Cc1c[nH]c2ccccc12)C(=O)N[C@@H](CCC(N)=O)C(=O)O [WVQ]
- EC50 [1]: < 1000 nM and 2000 nM
- EC50 [2]: 8000 nM
- EC50 [3]: < 1000 nM and 1000 nM
- Kd [4]: 2000 nM
- DUFFY SELECTIVITY (DARC specificity ratio) [4]: 10
- DUFFY SELECTIVITY (DARC specificity ratio) ([4]; listed as Pep3[10-12]): 24.81
- CC SPECIFICITY [5]: 1.1
- ED50 versus TGFβ1, inhibition of THP-1 migration [6]: n.s.
- EC50 [7]: 1500 nM

Values joined by “and” are separate entries in the source; they are usually repeats but may differ in a detail not shown here. Identical values can stand only once.
